{
  "source": "patent US11439670B2",
  "about": "“Akkermansia muciniphila EB-AMDK27 strain and use thereof” (ENTEROBIOME INC., priority 2019, dated 2022)",
  "system": "Bacteroides thetiotaomicron ATCC 29741",
  "test": "Antimicrobial susceptibility, MIC by broth microdilution (CLSI), QC strain",
  "conditions": "ATCC29741, read-out: MIC, QC ATCC 29741",
  "data": [
    {"molecule": "CCC[C@@H]1C[C@@H](C(=O)N[C@@H]([C@H]2O[C@H](SC)[C@H](O)[C@@H](O)[C@H]2O)[C@H](C)Cl)N(C)C1", "note": "[CLI, Clindamycin]", "values": [
      {"measurement": "MIC", "value": 4, "unit": "µg/mL"}
    ]}
  ]
}
